{"source": "patent US20070254314A1", "about": "“Methods of treating autism and autism spectrum disorders” (priority 2004, published 2007)", "key": {"[1]": {"conditions": "Child D, before therapy; reference range 0.0-14.9 μg/L"}, "[2]": {"source_text": "(§1) The toxic metals were reported as μg/g creatinine in order to account for urine dilution variations.\nas §1, §1, §1"}}, "note": "Like-named read-outs stand apart in the source and are kept apart here."}
{"substance": "Mercury", "values": [{"measurement": "Level of mercury in blood", "setting": "[1]", "result": 1.5, "unit": "ng/mL"}, {"measurement": "Level of mercury in urine", "setting": "[2]; Child D, autistic person, before therapy", "result": "undetectable levels"}, {"measurement": "Toxic metals in urine, Results", "setting": "[2]; Child X (autistic person), urine collected Nov. 5, 2000, during DMSA treatment, creatinine 43.4 mg/dL", "result": 15, "unit": "μg/g creatinine"}, {"measurement": "Toxic metals in urine, Results", "setting": "[2]; Child X, urine collected Sep. 30, 2001, during DMSA treatment, creatinine 54 mg/dL", "result": 5.4, "unit": "μg/g creatinine"}, {"measurement": "Toxic metals in urine, Results", "setting": "[2]; Child Y (autistic person), urine collected Jun. 29, 2002, during DMSA treatment, creatinine 6.9 mg/dL", "result": 29, "unit": "μg/g creatinine"}, {"measurement": "Toxic metals in urine, Results", "setting": "[2]; Child Y, urine collected Dec. 24, 2002, during DMSA treatment, creatinine 8.6 mg/dL", "result": 11, "unit": "μg/g creatinine"}]}
